Assay results reported in ChEMBL document CHEMBL4043104, “Conjugates of salicylaldoximes and peripheral site ligands: Novel efficient nonquaternary reactivators for nerve agent-inhibited acetylcholinesterase” (2017).

Amino acid sequences for entries named in this document (tags omitted). Residues count along the entry.
UniProt P22303, 32-614 limits assumed: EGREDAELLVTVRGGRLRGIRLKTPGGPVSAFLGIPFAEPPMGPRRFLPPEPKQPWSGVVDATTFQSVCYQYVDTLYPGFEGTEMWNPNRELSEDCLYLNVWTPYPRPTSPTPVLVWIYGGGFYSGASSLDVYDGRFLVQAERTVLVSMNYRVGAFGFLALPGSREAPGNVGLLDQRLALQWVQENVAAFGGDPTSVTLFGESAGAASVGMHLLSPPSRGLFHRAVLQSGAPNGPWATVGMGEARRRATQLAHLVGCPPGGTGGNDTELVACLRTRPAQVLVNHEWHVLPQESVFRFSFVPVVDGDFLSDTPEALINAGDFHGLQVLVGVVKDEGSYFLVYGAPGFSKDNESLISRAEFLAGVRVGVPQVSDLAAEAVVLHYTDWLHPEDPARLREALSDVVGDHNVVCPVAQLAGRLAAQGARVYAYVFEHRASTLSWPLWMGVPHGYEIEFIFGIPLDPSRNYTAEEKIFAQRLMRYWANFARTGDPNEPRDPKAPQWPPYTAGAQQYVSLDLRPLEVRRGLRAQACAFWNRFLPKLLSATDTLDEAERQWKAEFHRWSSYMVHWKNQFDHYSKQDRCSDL

Key:
[1] = biological target: Acetylcholinesterase (Homo sapiens) (UniProt P22303); assay: Reactivation of tabun-induced inhibition of human AChE assessed as reactivation rate constant using acetylthiocholine as substrate preincubated for 30 mins followed by substrate addition measured at 5 to 180 mins by Ellman's method
[2] = biological target: Acetylcholinesterase (Homo sapiens) (UniProt P22303); assay: Reactivation of VX-induced inhibition of human AChE assessed as second order reactivation rate constant using acetylthiocholine as substrate preincubated for 30 mins followed by substrate addition measured at 5 to 180 mins by Ellman's method
[3] = biological target: Acetylcholinesterase (Homo sapiens) (UniProt P22303); assay: Reactivation of tabun-induced inhibition of human AChE assessed as second order reactivation rate constant using acetylthiocholine as substrate preincubated for 30 mins followed by substrate addition measured at 5 to 180 mins by Ellman's method
[4] = biological target: Acetylcholinesterase (Homo sapiens) (UniProt P22303); assay: Reactivation of sarin-induced inhibition of human AChE assessed as second order reactivation rate constant using acetylthiocholine as substrate preincubated for 30 mins followed by substrate addition measured at 5 to 180 mins by Ellman's method

Compound: COc1cc2c(cc1OC)CN(CC1CCN(Cc3cc(Br)cc(/C=N/O)c3O)CC1)CC2
- Kr [1]: 2.9 ×10⁻³ /min
- Kr [2]: 5.2 mM⁻¹ min⁻¹
- Kr [3]: 0.412 mM⁻¹ min⁻¹
- Kr [4]: 0.521 mM⁻¹ min⁻¹

Compound: COc1cc(/C=N/O)c(O)c(CN2CCC(CN3CCc4cc(OC)c(OC)cc4C3)CC2)c1
- Kr [1]: 4.9 ×10⁻³ /min
- Kr [2]: 3.1 mM⁻¹ min⁻¹
- Kr [3]: 0.097 mM⁻¹ min⁻¹
- Kr [4]: 0.177 mM⁻¹ min⁻¹

Compound: COc1cc2c(cc1OC)CN(CC1CCN(Cc3cc(Cl)cc(/C=N/O)c3O)CC1)CC2
- Kr [1]: 3.4 ×10⁻³ /min
- Kr [2]: 7.19 mM⁻¹ min⁻¹
- Kr [3]: 0.382 mM⁻¹ min⁻¹
- Kr [4]: 0.485 mM⁻¹ min⁻¹

Compound: COc1cc2c(cc1OC)CN(CC1CCN(Cc3cc(F)cc(/C=N/O)c3O)CC1)CC2
- Kr [1]: 5.2 ×10⁻³ /min
- Kr [2]: 6.18 mM⁻¹ min⁻¹
- Kr [3]: 0.098 mM⁻¹ min⁻¹
- Kr [4]: 0.153 mM⁻¹ min⁻¹
